Source: patent publication US20240148821A1, “PHARMACEUTICAL USE OF CYCLIC PEPTIDE COMPOUND” (CHUGAI SEIYAKU KABUSHIKI KAISHA, priority 2021, published 2024)

Chains of the proteins cited; added tags and fusions are not shown. Residues count along the entry.
UniProt P01116, 1-188 isoform 2 G12D limits assumed: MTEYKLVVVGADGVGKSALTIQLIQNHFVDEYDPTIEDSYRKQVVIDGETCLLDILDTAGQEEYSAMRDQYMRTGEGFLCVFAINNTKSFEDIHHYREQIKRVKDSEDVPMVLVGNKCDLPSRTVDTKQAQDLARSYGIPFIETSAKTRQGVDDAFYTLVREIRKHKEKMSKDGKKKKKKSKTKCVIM

Experiments:
[1] = biological target: protein-protein interaction between Kras and SOS1 (biotin-tagged human Kras loaded with GDP, His-tagged human SOS1) (Homo sapiens (Human), UniProt P01116, G12D); assay: Protein-protein interaction inhibition between Kras and SOS1 (KrasG12D-SOS PPI) using AlphaScreen; type: biochemical; conditions: read-out: KRAS G12D-SOS PPI IC50;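 also: kras produced in E. coli, Ni-coupled donor beads and streptavidin acceptor beads, excitation 680 nm with emission detected at 520–620 nm via singlet oxygen transfer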
[2] = system: Human pancreatic cancer cell line AsPC-1 (G12D mutation Kras); assay: AsPC-1 cell growth inhibition (AsPC-1 CGI); conditions: read-out: AsPC-1 cell growth inhibition, 50% growth inhibitory concentration (IC50 value); 96 hours, CellTiter-Glo, values classified in ranges

SMILES	IC50 [1]	IC50 [2]
CC[C@H](C)[C@@H]1NC(=O)[C@H](CC(C)C)N(C)C(=O)C[C@@H](C(=O)N2CCOCC2)N(C)C(=O)[C@H](C2CCCC2)N(C)C(=O)C2(CCCC2)NC(=O)[C@@H]2CCCN2C(=O)[C@H](CCc2ccc(C(F)(F)F)c(Cl)c2)NC(=O)CN(C)C(=O)[C@H](Cc2ccc(C(F)(F)F)cc2)N(C)C(=O)[C@@H]2CCN2C(=O)[C@H](C)N(C)C1=O	0.00044 µM	≤ 0.02 µM
CC[C@H](C)[C@@H]1NC(=O)[C@H](CC(C)C)N(C)C(=O)C[C@@H](C(=O)N2CCCCC2)N(C)C(=O)[C@H](C2CCCCC2)N(C)C(=O)C2(CCCC2)NC(=O)[C@@H]2C[C@@H](c3ccccc3)CN2C(=O)[C@H](CCc2ccc(C(F)(F)F)c(Cl)c2)NC(=O)CN(C)C(=O)[C@H](CC2CCCCC2)N(C)C(=O)[C@@H]2CCN2C(=O)[C@H](C)N(C)C1=O		> 0.5 µM
CCC[C@@H]1NC(=O)[C@H](CC(C)C)N(C)C(=O)C[C@@H](C(=O)N2CCCCC2)N(C)C(=O)[C@H](C(C)C)N(C)C(=O)C2(CCCC2)NC(=O)[C@@H]2CCCN2C(=O)[C@H](CCc2ccc(C(F)(F)F)c(Cl)c2)NC(=O)CN(C)C(=O)[C@H](CC2CCCCC2)N(C)C(=O)[C@@H]2CCN2C(=O)[C@H](C)N(C)C1=O		> 0.5 µM
CC[C@H](C)[C@@H]1NC(=O)[C@H](CC(C)C)N(C)C(=O)C[C@@H](C)N(C)C(=O)[C@H]([C@@H](C)CC)N(C)C(=O)C2(CCCC2)NC(=O)[C@@H]2CCCN2C(=O)[C@H](CCc2ccc(C(F)(F)F)c(Cl)c2)NC(=O)CN(C)C(=O)[C@H](Cc2ccc(C(F)(F)F)cc2)N(C)C(=O)[C@@H]2CCN2C(=O)[C@H](C)N(C)C1=O		≤ 0.02 µM
CC[C@H](C)[C@@H]1NC(=O)[C@H](C)N(C)C(=O)C[C@@H](C(=O)N2CCCCC2)N(C)C(=O)[C@H](C(C)C)N(C)C(=O)C2(CCCC2)NC(=O)[C@H](Cc2cccc(C)c2)N(C)C(=O)[C@H](CCc2ccc(C(F)(F)F)c(Cl)c2)NC(=O)CN(C)C(=O)[C@H](CC2CCCCC2)N(C)C(=O)CN(C)C(=O)CN(C)C1=O	0.022 µM	> 0.5 µM
CC[C@H](C)[C@@H]1NC(=O)[C@H](C)N(C)C(=O)C[C@@H](C(=O)N2CCCCC2)N(C)C(=O)[C@H](C(C)C)N(C)C(=O)C2(CCCC2)NC(=O)[C@@H]2CCCN2C(=O)[C@H](CCc2ccc(C(F)(F)F)cc2)NC(=O)CN(C)C(=O)[C@H](CC2CCCCC2)N(C)C(=O)[C@@H]2CCN2C(=O)[C@H](C)N(C)C1=O		> 0.5 µM
CCO[C@@H]1C[C@H]2C(=O)NC3(CCCC3)C(=O)N(C)[C@@H]([C@@H](C)CC)C(=O)N(C)[C@H](C)CC(=O)N(C)[C@@H](CC(C)C)C(=O)N[C@@H]([C@@H](C)CC)C(=O)N[C@@H](C)C(=O)N3CC[C@H]3C(=O)N(CC)[C@@H](Cc3ccc(C(F)(F)F)cc3)C(=O)N(C)CC(=O)N[C@@H](CCc3cc(F)c(C(F)(F)F)c(F)c3)C(=O)N2C1		≤ 0.02 µM
CC[C@H](C)[C@@H]1NC(=O)[C@H](CC(C)C)N(C)C(=O)C[C@@H](C)NC(=O)[C@H](CC2CCCC2)N(C)C(=O)C2(CCCC2)NC(=O)[C@@H]2CCCN2C(=O)[C@H](CCc2ccc(C(F)(F)F)c(Cl)c2)NC(=O)CN(C)C(=O)[C@H](CC2CCCCC2)N(C)C(=O)CN(C)C(=O)CN(C)C1=O		> 0.5 µM
CC[C@H](C)[C@@H]1NC(=O)[C@H](CC(C)C)N(C)C(=O)C[C@@H](C)N(C)C(=O)[C@H](C(C)C)N(C)C(=O)[C@](C)(CC(C)C)NC(=O)[C@@H]2CCCN2C(=O)[C@H](CCc2ccc(C(F)(F)F)c(Cl)c2)NC(=O)CN(C)C(=O)[C@H](CC2CCCCC2)N(C)C(=O)CN(C)C(=O)CN(C)C1=O		> 0.5 µM
CC[C@H](C)[C@@H]1NC(=O)[C@@H]2CCCCN2C(=O)C[C@@H](C)NC(=O)[C@H](C(C)C)N(C)C(=O)C2(CCCC2)NC(=O)[C@@H]2CCCN2C(=O)[C@H](CCc2ccc(C(F)(F)F)c(Cl)c2)NC(=O)CN(C)C(=O)[C@H](CC2CCCCC2)N(C)C(=O)CN(C)C(=O)CN(C)C1=O	0.032 µM	> 0.5 µM
CC[C@H](C)[C@@H]1NC(=O)[C@H](CC(C)C)N(C)C(=O)C[C@@H](C(=O)N2CCCCC2)N(C)C(=O)[C@H](C(C)C)N(C)C(=O)C2(CCCC2)NC(=O)[C@@H]2CCCN2C(=O)[C@H](CCc2ccc(C(F)(F)F)c(Cl)c2)NC(=O)CN(C)C(=O)[C@H](CCOC)N(C)C(=O)[C@@H]2CCN2C(=O)[C@H](C)N(C)C1=O		> 0.5 µM
C#CCC[C@H]1C(=O)N[C@@H]([C@@H](C)CC)C(=O)N(C)CC(=O)N(C)CC(=O)N(C)[C@@H](Cc2ccc(I)cc2)C(=O)N(C)CC(=O)N[C@@H](CCc2ccc(C(F)(F)F)c(Cl)c2)C(=O)N2CCC[C@H]2C(=O)NC2(CCCC2)C(=O)N(C)[C@@H](C2CCCCC2)C(=O)N(C)[C@H](C(=O)N2CCCCC2)CC(=O)N1C	0.00082 µM	
CC[C@H](C)[C@@H]1NC(=O)[C@H](C)N(C)C(=O)C[C@@H](C)NC(=O)[C@H](C(C)C)N(C)C(=O)C2(CCCC2)NC(=O)[C@@H]2CCCN2C(=O)[C@H](CCc2ccc(C(F)(F)F)c(Cl)c2)NC(=O)[C@@H](C)N(C)C(=O)[C@H](Cc2ccc(F)cc2)N(C)C(=O)[C@@H]2CCCN2C(=O)CN(C)C1=O	0.02 µM	> 0.5 µM
CC[C@H](C)[C@@H]1NC(=O)[C@H](CC2CCCC2)N(C)C(=O)C[C@@H](C(=O)N(C)C)N(C)C(=O)[C@H](C2CCCC2)N(C)C(=O)C2(CCCC2)NC(=O)[C@@H]2CCCN2C(=O)[C@H](CCc2ccc(C(F)(F)F)c(Cl)c2)NC(=O)CN(C)C(=O)[C@H](Cc2ccc(C)cc2)N(C)C(=O)[C@@H]2CCN2C(=O)[C@H](C)NC1=O		≤ 0.02 µM
CC[C@H](C)[C@@H]1NC(=O)[C@H](C)N(C)C(=O)C[C@@H](C(=O)N2CCCCC2)N(C)C(=O)[C@H](C2CCCCC2)N(C)C(=O)C2(CCCC2)NC(=O)[C@H](Cc2cccnc2)N(C)C(=O)[C@H](CCc2ccc(C(F)(F)F)c(Cl)c2)NC(=O)CN(C)C(=O)[C@H](CC2CCCCC2)N(C)C(=O)[C@@H]2CCN2C(=O)CN(C)C1=O		> 0.5 µM
CC[C@H](C)[C@@H]1NC(=O)[C@H](C)N(C)C(=O)C[C@@H](C(=O)N2CCCCC2)N(C)C(=O)[C@H](C(C)C)N(C)C(=O)C2(CCCC2)NC(=O)[C@@H]2CCCN2C(=O)[C@H](CCc2ccc(C(F)(F)F)c(Cl)c2)NC(=O)[C@H]2CCCN2C(=O)[C@H](CC2CCCCC2)N(C)C(=O)[C@@H]2CCCN2C(=O)CN(C)C1=O	0.011 µM	> 0.5 µM
CC[C@H](C)[C@@H]1NC(=O)[C@H](C)N(C)C(=O)C[C@@H](C)N(C)C(=O)[C@H](C2CCCCC2)N(C)C(=O)C(C)(C)N(C)C(=O)[C@@H]2CCCN2C(=O)[C@H](CCc2ccc(C(F)(F)F)c(Cl)c2)NC(=O)CN(C)C(=O)[C@H](CC2CCCCC2)N(C)C(=O)CN(C)C(=O)CN(C)C1=O		> 0.5 µM
CC[C@H](C)[C@@H]1NC(=O)[C@H](CC(C)C)N(C)C(=O)C[C@@H](C(=O)N2CCCCC2)N(C)C(=O)[C@H](COC2CCC2)N(C)C(=O)C2(CCCC2)NC(=O)[C@@H]2CCCN2C(=O)[C@H](CCc2ccc(C(F)(F)F)c(Cl)c2)NC(=O)CN(C)C(=O)[C@H](CC2CCCCC2)N(C)C(=O)[C@@H]2CCN2C(=O)[C@H](C)N(C)C1=O		> 0.5 µM
CC[C@H](C)[C@@H]1NC(=O)[C@H](C)N(C)C(=O)C[C@@H](C)NC(=O)[C@H](C2CCCC2)N(C)C(=O)C2(CCCC2)NC(=O)[C@@H]2CCCN2C(=O)[C@H](CCc2ccc(C(F)(F)F)c(Cl)c2)NC(=O)CN(C)C(=O)[C@H](Cc2ccc(F)c(F)c2)N(C)C(=O)[C@@H]2CCCN2C(=O)CN(C)C1=O		> 0.5 µM
CC[C@H](C)[C@@H]1NC(=O)[C@H](CC(C)C)N(C)C(=O)C[C@@H](C(=O)N2CCCCC2)N(C)C(=O)[C@H](C2CCCCC2)N(C)C(=O)C2(CCCC2)NC(=O)[C@@H]2Cc3ccccc3N2C(=O)[C@H](CCc2ccc(C(F)(F)F)c(Cl)c2)NC(=O)CN(C)C(=O)[C@H](CC2CCCCC2)N(C)C(=O)[C@@H]2CCCN2C(=O)CN(C)C1=O	0.0084 µM	> 0.5 µM
